Assay results: patent US12606523B2, “Deuterated organic compounds and uses thereof” (ENGRAIL THERAPEUTICS, INC., priority 2022, dated 2026)

Test system: Sprague Dawley rats
Assay: Conditioned Avoidance Response test
Conditions: rat, 0.5 mg/kg i.p. 30 minutes prior to test

## Cc1nc2n(c(=O)c1CCN1CCC(c3noc4cc(F)ccc34)CC1)CCCC2 [risperidone, Risperidone]
  escape failures compared to vehicle: increase
